Measured values from patent US12084462B2, “Spiro bicyclic inhibitors of menin-MLL interaction” (Janssen Pharmaceutica NV, priority 2016, dated 2024).

Protein sequences, listed by entry. Tags and fused reporters are not part of them. Chains listed by the source or under a name are the forms on record and can include a tag or linker. Residues count along the entry.
UniProt O00255, 1-610 with tags or gaps T541A: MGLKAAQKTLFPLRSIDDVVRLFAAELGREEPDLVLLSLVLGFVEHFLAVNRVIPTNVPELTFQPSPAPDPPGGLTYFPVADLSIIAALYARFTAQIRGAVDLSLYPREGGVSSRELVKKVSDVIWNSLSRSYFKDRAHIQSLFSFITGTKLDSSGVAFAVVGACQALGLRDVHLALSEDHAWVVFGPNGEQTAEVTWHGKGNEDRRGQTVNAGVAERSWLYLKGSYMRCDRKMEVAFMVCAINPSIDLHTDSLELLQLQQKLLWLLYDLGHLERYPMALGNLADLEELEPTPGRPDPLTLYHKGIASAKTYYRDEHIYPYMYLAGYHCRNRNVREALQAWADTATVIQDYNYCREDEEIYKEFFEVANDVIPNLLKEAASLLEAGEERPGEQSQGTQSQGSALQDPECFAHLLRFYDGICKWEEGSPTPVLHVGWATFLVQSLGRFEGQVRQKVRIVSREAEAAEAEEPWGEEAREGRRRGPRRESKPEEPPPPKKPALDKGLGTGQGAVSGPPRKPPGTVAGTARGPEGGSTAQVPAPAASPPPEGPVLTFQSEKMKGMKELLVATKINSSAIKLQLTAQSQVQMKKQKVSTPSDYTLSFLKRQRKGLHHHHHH

How the values were obtained:
menin = menin (Homo sapiens, UniProt O00255, T541A); experiment: Menin/MLL fluorescence polarization (FP) assay; details: read-out: Menin FP assay (IC50 (μM)); averaged values over all measurements
Description: 1) Menin/MLL Fluorescence Polarization Assay
To a non-surface binding, black 384-well microtiter plate was added 50 nL 160× test compound in DMSO and 4 μL 2× menin in assay buffer (40 mM Tris·HCl, pH 7.5, 50 mM NaCl, 1 mM DTT and 0.001% Tween 20). After incubation of test compound and menin for 10 min at ambient temperature, 4 μL 2×FITC-MBM1 peptide (FITC-β-alanine-SARWRFPARPGT-NH2 (SEQ ID NO: 2)) in assay buffer was added, the microtiter plate centrifuged at 1000 rpm for 1 min and the assay mixtures incubated for 15 min at ambient temperature. The relative amount of menin·FITC-MBM1 complex present in an assay mixture is determined by measuring the fluorescence polarization (FP) of the FITC label with a BMG Pherastar plate reader (ex. 485 nm/em. 520 nm) at ambient temperature. The final concentrations of reagents in the binding assay are 100 nM menin, 5 nM FITC-MBM1 peptide and 0.625% DMSO in assay buffer. […]
Compound potencies were determined by first calculating % inhibition at each compound concentration according to equation 1: % inhibition=((HC−LC)−(FP^compound−LC))/(HC−LC))*100 (Eqn 1)
Where LC and HC are the FP values of the assay in the presence or absence of a saturating concentration of a compound that competes with FITC-MBM1 for binding to menin, and FP^compound is the measured FP value in the presence of the test compound. […]

MV-4-11 = experiment: Proliferation assay (spheroid assay) MV-4-11; details: read-out: Spheroid assay MV-4-11 (IC50 (μM)), averaged values
Description: (§1) The anti-proliferative effect of menin/MLL protein/protein interaction inhibitor test compounds was assessed in human leukemia cell lines. The cell lines MV-4-11 and MOLM14 harbor MLL translocations and express the MLL fusion proteins MLL-AF4 and MLL-AF9, respectively, as well as the wildtype protein from the second allele. […] K562 and KG1 were used as a control cell lines containing two MLL wildtype alleles in order to exclude compounds that display general cytotoxic effects.
(§2) MV-4-11 and MOLM14 were cultured in RPMI-1640 (Sigma Aldrich) supplemented with 10% fetal bovine serum (HyClone), 2 mM L-glutamine (Sigma Aldrich) and 50 μg/ml gentamycin (Gibco). K562 were propagated in RPMI-1640 (Sigma Aldrich) supplemented with 20% fetal bovine serum (HyClone), 2 mM L-glutamine (Sigma Aldrich) and 50 μg/ml gentamycin (Gibco). KG1 were cultured in Iscove's MDM (Gibco) supplemented with 20% fetal bovine serum (HyClone), 2 mM L-glutamine (Sigma Aldrich) and 50 μg/ml gentamycin (Gibco).
(§3) In order to assess the anti-proliferative effects, 1,500 MV-4-11, 300 MOLM14, 750 K562 or 1,300 KG1 cells were seeded in 200 μl media per well in 96-well round bottom, ultra-low attachment plates (Costar, catalogue number 7007). Cell seeding numbers were chosen based on growth curves to ensure linear growth throughout the experiment. Test compounds were added at different concentrations and the DMSO content was normalized to 0.3%. Cells were incubated for 8 d at 37° C. and 5% CO2. Spheroid like growth was monitored in real-time by live-cell imaging (IncuCyteZOOM, Essenbio, 4× objective) acquiring one image every four hours for 8 d. Confluence (%) as a measure of spheroid size was determined using an integrated analysis tool.
In order to determine the cumulative effect of the test compounds over time, the area under the curve (AUC) in a plot of confluence against time was calculated. Confluence at the beginning of the experiment (t=0) was used as baseline for the AUC calculation.
Absolute IC50 values were calculated according to the following procedure: % Control=(AUC sample/AUC control)*100 AUC control=mean AUC of control values (cells without compound/DMSO as vehicle control)
A non-linear curve fit was applied using the least squares (ordinary) fit method to the plot of % control versus compound concentration. Based on this, the absolute IC50 value (half maximal inhibitory concentration of the test compound causing an anti-proliferative effect of 50% relative to the vehicle control) was calculated.

MOLM14 = experiment: Proliferation assay (spheroid assay) MOLM14; details: read-out: Spheroid assay MOLM14 (IC50 (μM)), averaged values
Description: as §1, §2, §3
(§4) In order to determine the cumulative effect of the test compounds over time, the area under the curve (AUC) in a plot of confluence against time was calculated. […]
Absolute IC50 values were calculated according to the following procedure: % Control=(AUC sample/AUC control)*100 AUC control=mean AUC of control values (cells without compound/DMSO as vehicle control) […]

KG1 = experiment: Proliferation assay (spheroid assay) KG1, control cell line; details: read-out: Spheroid assay KG1 (IC50 (μM)), averaged values
Description: as §1
MV-4-11 and MOLM14 were cultured in RPMI-1640 (Sigma Aldrich) supplemented with 10% fetal bovine serum (HyClone), 2 mM L-glutamine (Sigma Aldrich) and 50 μg/ml gentamycin (Gibco). […]
as §3, with “Cell seeding numbers were chosen based on growth curves to ensure linear growth throughout the experiment. Test compounds were added at different concentrations and the DMSO content was normalized to 0.3%. Cells were incubated for 8 d at 37° C. and 5% CO2.” left out
as §4

IC50 (menin) [µM]	IC50 (MV-4-11) [µM]	IC50 (MOLM14) [µM]	Structure (SMILES)	IC50 (KG1) [µM]
0.68	–	–	N#CCCn1cc(CN2CC3(CCN(c4ncnc5sc(CC(F)(F)F)cc45)C3)C2)cn1	–
–	3.2	–	CC1(CN2CC3(CCN(c4ncnc5sc(CC(F)(F)F)cc45)C3)C2)COC1	–
–	1.4	–	CC(C)CN1CCC2(CCN(c3ncnc4sc(CC(F)(F)F)cc34)C2)C1 (single isomer, unassigned)	–
–	0.28	1.5	CC(C)C(Cc1ccc(F)cc1)N1CC2(CCN(c3ncnc4sc(CC(F)(F)F)cc34)C2)C1 (centres unmarked)	10.7
–	0.74	1.6	CC(C)C(C1CCOC1)N1CC2(CCN(c3ncnc4sc(CC(F)(F)F)cc34)C2)C1 (centres unmarked)	–

Structure (SMILES)	IC50 (menin) [µM]	IC50 (MV-4-11) [µM]	IC50 (MOLM14) [µM]	IC50 (KG1) [µM]
CC(C)CC(C1CNC1)N1CC2(CCN(c3ncnc4sc(CC(F)(F)F)cc34)C2)C1 (centres unmarked)	–	0.68	3.5	12.5
